This experiment addresses human MC4 receptor (human, UniProt P32245). In words: competition.

Amino acid sequences for entries named in this document (tags omitted).
UniProt P32245, whole entry: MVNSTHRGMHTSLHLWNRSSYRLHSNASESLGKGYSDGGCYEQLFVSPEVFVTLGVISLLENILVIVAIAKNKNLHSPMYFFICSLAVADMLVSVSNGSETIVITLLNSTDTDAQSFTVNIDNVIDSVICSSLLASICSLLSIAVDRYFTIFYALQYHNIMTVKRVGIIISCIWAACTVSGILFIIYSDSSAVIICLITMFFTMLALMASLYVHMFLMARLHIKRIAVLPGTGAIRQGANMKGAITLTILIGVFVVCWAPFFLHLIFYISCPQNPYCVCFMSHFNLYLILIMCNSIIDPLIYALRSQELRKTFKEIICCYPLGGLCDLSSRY

For orientation: Ki means a dissociation constant, usually derived from enzyme kinetics or from competition with a known ligand.

B1: Compound 87 (peptide)
chain: RCEHFRWC
modifications: cyclic (Cys-Cys), Ac, 1-Me-His, 4-Cl-D-Phe, NH2; name in text has N-terminal Tyr absent in listing
As to B1, the Ki stood at 1.11 nM. In other words, the single-digit nanomolar range.

The values above are taken from patent US20070105759 (published 2007).
